Earlier results as cited in US9487470B2, “4-((substituted phenyl) difluoromethyl) phenoxy carboxylic acid derivative, and preparation method and uses thereof” (Zhejiang Hisun Pharmaceutical Co., Ltd., priority 2012, dated 2016).

Conditions: reports of U.S. Pat. No. 4,058,552; Practical Pharmacy and Clinical Remedies, 2005, 8, 35-36; WO02/39983; cited from earlier work

In the case of fenofibrate [reference compound], the bioavailability is listed as “poor bioavailability”.
